Publication PMC5659129, “Determinants of the Inhibition of DprE1 and CYP2C9 by Antitubercular Thiophenes” (Angewandte Chemie (International Ed. in English), 2017)

Protein sequences, listed by entry. Tags and fused reporters are not part of them. Lines headed by an entry give the natural chain unless they say otherwise; changes in a name come on top.
UniProt A0R607: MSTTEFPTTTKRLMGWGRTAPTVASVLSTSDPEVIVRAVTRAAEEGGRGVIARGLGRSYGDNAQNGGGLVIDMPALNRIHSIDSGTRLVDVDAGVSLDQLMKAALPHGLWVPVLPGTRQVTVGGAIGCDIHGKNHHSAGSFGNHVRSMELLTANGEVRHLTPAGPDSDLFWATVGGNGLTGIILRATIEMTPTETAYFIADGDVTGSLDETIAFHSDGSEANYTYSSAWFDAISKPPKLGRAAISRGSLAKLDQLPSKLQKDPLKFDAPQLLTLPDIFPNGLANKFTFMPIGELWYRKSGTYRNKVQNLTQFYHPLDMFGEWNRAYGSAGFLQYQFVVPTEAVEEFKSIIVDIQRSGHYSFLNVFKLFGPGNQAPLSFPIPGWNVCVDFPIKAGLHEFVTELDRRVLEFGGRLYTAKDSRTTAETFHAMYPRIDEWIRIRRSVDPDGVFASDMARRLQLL

Molecular target: M. smegmatis DprE1 WT (Mycolicibacterium smegmatis, UniProt A0R607)
Test: biochemical
[1] = M. smegmatis DprE1, Table 1, read-out: IC50 DprE1 WT

Row | SMILES | IC50 [1] | Ki (steady-state kinetics, Table S2) | improvement of IC50 compared to TCA1 (DprE1 IC50 relative to TCA1) | IC50 (Figure 4D, read-out: DprE1 IC50) | IC50 (read-out: IC50 (DprE1))
1 | CCOC(=O)NC(=O)c1ccsc1NC(=O)c1nc2ccccc2s1 [TCA1] | 48 ± 14 nM | 150 nM | – | – | –
2 | CCOC(=O)NC(=O)c1ccsc1NC(=O)c1nc2cnccc2s1 [TCA007] | 5.3 nM | – | 8 fold | 100 nM | 5 ± 2 nM

Read-outs that look alike come from different tables or passages of the source.
